# Experimental data taken from US20240368122A1, “JAK2 INHIBITORS AND METHODS OF USE THEREOF” (RELAY THERAPEUTICS, INC., priority 2021, published 2024).
# Amino acid sequences for entries named in this document (tags omitted). Residues count along the entry.
# UniProt O60674, 536-812 W659A/W777A/F794H limits assumed: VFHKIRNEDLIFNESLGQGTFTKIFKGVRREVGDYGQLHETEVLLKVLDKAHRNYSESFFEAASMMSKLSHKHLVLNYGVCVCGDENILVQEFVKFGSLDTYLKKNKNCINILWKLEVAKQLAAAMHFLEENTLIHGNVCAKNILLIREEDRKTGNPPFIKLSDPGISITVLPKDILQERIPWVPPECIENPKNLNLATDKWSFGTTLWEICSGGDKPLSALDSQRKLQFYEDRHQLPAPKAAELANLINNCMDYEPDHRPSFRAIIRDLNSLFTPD
# Key:
# [1] = target: JAK2 JH2 WT (V536-D812) [W659A, W777A, F794H solubilizing mutations] (Homo sapiens, UniProt O60674, F794H/W659A/W777A); assay: Surface Plasmon Resonance (SPR) binding assay, JAK2 JH2 domain; conditions: read-out: SPR JAK2 JH2 KD
# [2] = system: TF1 JAK2 V617F STAT3 reporter; assay: Cellular TF1 STAT3 assay (luciferase reporter), JAK2 V617F; conditions: read-out: Cell PD-TF1 JAK2 V617F STAT3 (IC50), TF1 cells
# [3] = system: TF1 JAK2 V617F STAT5 reporter; assay: Cellular TF1 STAT5 assay (luciferase reporter), JAK2 V617F; conditions: read-out: Cell PD TF1 V617F STAT5 (IC50), TF1 cells
compound,measurement,setting,value
CNC(=O)c1nnc(NC(=O)C2CC2)cc1Nc1cccc(-c2cnn(C3CC(N(C)c4ccccn4)C3)c2)c1OC (stereo not drawn),Kd,[1],0.01 to 10 nM
same,IC50,[2],500 to 5000 nM
same,IC50,[3],500 to 5000 nM
